Experimental data taken from patent US5670530A, “Anti-cancer composition comprising rhodacyanine compound and cyclodextrin” (Fuji Photo Film Co., Ltd., priority 1995, dated 1997).

System: ICR mice
Assay: Symptom and precipitation in lung after intravenous administration to mice (Example 7)
Assay type: in vivo
[1] = HP-β-CD concentration increases

Compound: CCn1c(=Cc2sc3c4ccccc4ccc3[n+]2CC)sc(=CC=C2Sc3ccc4ccccc4c3N2C)c1=O [Compound 1]
- precipitation in lung (HP-β-CD 2.25 w/v %, Animal 1, after one day): +++
- symptom after administration (HP-β-CD 2.25 w/v %, Animal 1, i.v. 3 mg/ml, 5 ml per 1 kg): died
- symptom after administration (HP-β-CD 2.25 w/v %, Animal 2): died
- precipitation in lung (HP-β-CD 2.25 w/v %, Animal 2, after one day): +++
- symptom after administration (HP-β-CD 2.25 w/v %, Animal 3): angor
- precipitation in lung (HP-β-CD 2.25 w/v %, Animal 3, after one day): +++
- symptom after administration (HP-β-CD 4.5 w/v %, Animal 1): angor
- precipitation in lung (HP-β-CD 4.5 w/v %, Animal 1, after one day): +++
- symptom after administration (HP-β-CD 4.5 w/v %, Animal 2): angor
- precipitation in lung (HP-β-CD 4.5 w/v %, Animal 2, after one day): +++
- symptom after administration (HP-β-CD 4.5 w/v %, Animal 3): angor
- precipitation in lung (HP-β-CD 4.5 w/v %, Animal 3, after one day): +++
- precipitation in lung (HP-β-CD 9.0 w/v %, Animal 1, after one day): +++
- precipitation in lung (HP-β-CD 9.0 w/v %, Animal 2, after one day): +++
- precipitation in lung (HP-β-CD 9.0 w/v %, Animal 3, after one day): ++
- precipitation in lung (HP-β-CD 18 w/v %, Animal 1, after one day): +++
- precipitation in lung (HP-β-CD 18 w/v %, Animal 2, after one day): +
- precipitation in lung (HP-β-CD 18 w/v %, Animal 3, after one day): +
- precipitation of Compound 1 in lung [1]: effectively inhibited
- toxity due to precipitation of Compound 1 [1]: reduced
